The data set is classed as in vivo, New Zealand White Rabbit. The note with it: rabbit, up to 72 h except for 0.5 h following administration; 0.1 mg/eye.

On to `COc1ccc(-c2ccnc3cc(C(=O)N4CCN(C(=O)c5ccccc5)[C@@H](C)C4)nn23)cc1OC` [16d, (S)-(4-Benzoyl-3-methylpiperazin-1-yl)(7-(3,4-dimethoxyphenyl)pyrazolo[1,5-a]pyrimidin-2-yl)methanone], for which the mean plasma concentrations result is on record as “below the lower limit of quantitation”.

Source of the values: article PMC9841530 (Journal of Medicinal Chemistry, 2022).
